## Ab-14 heavy chain CDR variants: yeast mating affinities

Data: MIT Lincoln Laboratory AlphaSeq set, Li et al. 2023, doi:10.1038/s41467-023-39022-2, as distributed in FLAb.

Binding partner: SARS-CoV-2 spike HR2 peptide, sequence PDVDLGDISGINAS.

Ab-14 is the parent antibody, in scFv form: VH, then a (GGGGS)3 linker, then VL. The light chain is unchanged in all variants.
VH: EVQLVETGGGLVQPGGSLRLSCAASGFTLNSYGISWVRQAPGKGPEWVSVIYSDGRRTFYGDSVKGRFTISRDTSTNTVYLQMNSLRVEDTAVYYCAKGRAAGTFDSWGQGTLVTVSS
VL: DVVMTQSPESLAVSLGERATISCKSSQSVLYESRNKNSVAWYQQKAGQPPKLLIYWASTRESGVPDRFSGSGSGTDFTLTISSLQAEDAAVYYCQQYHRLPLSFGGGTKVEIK

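The parent was found by panning a naive human phage display library on the peptide. These sequences belong to a second round, designed from the earlier measurements on random variants of the parent. Several design methods are mixed in this list. The assay is AlphaSeq: two haploid yeast populations carry antibody and antigen on their surface. Binding brings cells together so that they mate, and sequencing counts the barcode pairs among the diploids. The ratio of observed to expected reads was calibrated, replicate by replicate, on BCL2-family standards whose Kd was known from biolayer interferometry. The assay was run in six technical replicates.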

The parent's heavy chain CDRs are GFTLNSYGIS, VIYSDGRRTFYGDSVK, GRAAGTFDS; each variant's own CDRs replace them letter for letter. This list holds designs with more than six substitutions. Affinities are written as log10 Kd with Kd in nM; a lower number is a better binder. A mean of the replicates is given; it leaves out those without a signal. A pair that was not seen in that replicate is written "n.d."; this usually means weak binding, but a binder can also be missed.

CDR-H1,CDR-H2,CDR-H3,"log10 Kd, replicates",mean log10 Kd (nM),control signals
GFDLNEYGIS,VIYADGRRTFYADSVK,GQAAGTFTV,-0.02 -0.24 0.14 -0.95 -0.66 0.39,-0.22,0/18
GQDLAEYGIS,VIYADGKRTYYAQDVK,GTNVGQGGF,n.d. n.d. n.d. n.d. n.d. n.d.,n.d.,0/18
GFDLNEYGIS,VIYADGKRTAYADSVK,GANAGTFDM,-0.36 -0.22 -0.65 -0.30 -0.25 -0.09,-0.31,0/18
GFDLEQYGIS,VIYADGVRTAYSQNSK,GDDGIAVDI,n.d. n.d. n.d. n.d. n.d. n.d.,n.d.,0/18
GFDLDEYGIS,VIYADGQRTAYTDSVK,GENAGTFDL,0.05 0.48 -0.13 0.04 0.16 0.30,0.15,0/18
GFDLNEYGIS,VIYADGRRTFYSDSVK,GENAGFFDM,n.d. n.d. n.d. n.d. n.d. n.d.,n.d.,0/18
GFDLNEYGIS,VIYADGKRTAYADNVK,GQNAGTFDV,0.16 -0.18 -0.48 -0.06 0.04 -0.01,-0.09,0/18
GVDLNSYGIS,VIYGDGRRCFYGDSVK,GKAAGWFNS,n.d. n.d. n.d. n.d. n.d. n.d.,n.d.,0/18
GFDLNEYGIS,VIYADGRRTAYTDSVK,GNQAGTFDV,0.46 0.41 0.06 0.42 0.25 0.42,0.34,0/18
GFDLNEYGIS,VIYADGVRTAYSDSVK,GNQAGTFDQ,0.46 0.26 0.09 0.72 0.95 0.24,0.45,0/18
GFQIDEYGIS,VIYADGQRSAYSENVK,GQHGGMTVS,n.d. n.d. n.d. n.d. n.d. n.d.,n.d.,0/18
GFDLNEYGIS,VIYADGRRTFYADSVK,GETGGTFDV,-0.81 0.00 -1.08 -1.09 0.64 -0.11,-0.41,0/18
GFDLNEYGIS,VIYADGRRTAYTDSVK,GHLAGTFDL,-0.41 -0.69 -0.83 -0.69 -0.50 -0.36,-0.58,2/18 (3.13)
GKDLQEYGVS,VIYADGMRKSYADSVK,GQHAGYLDK,n.d. n.d. n.d. n.d. n.d. n.d.,n.d.,0/18
GFDLNEYGIS,VIYADGMRTAYSDKVK,GNNAGTFDI,-0.12 -0.14 -0.44 -0.59 -0.39 -0.31,-0.33,0/18
GFDLNEYGIS,VIYADGIRTAYVSKVK,GRDIINVLF,n.d. n.d. n.d. n.d. n.d. n.d.,n.d.,0/18
GFDLLEYGIS,VIYADGMRVAYAKDVK,GMFGIFTVD,n.d. n.d. n.d. n.d. n.d. n.d.,n.d.,0/18
GFDLDEYGIS,VIYADGMRTFYADSVK,GETAGTFDV,-0.09 -0.41 -0.34 -0.52 -0.56 -0.34,-0.38,0/18
GFDLNEYGIS,VIYADGKKTGFANTVK,GESGGNFDD,n.d. n.d. n.d. 1.90 n.d. n.d.,1.90,1/18 (1.72)
GFDLNEYGIS,VIYADGRRTAYADSVK,GQVAGTFDN,0.17 0.20 -0.01 -0.22 0.09 0.33,0.09,4/18 (2.52)
GFDLNEYGIS,VIYADGRRTFYADSVK,GNVAGTFSS,-0.42 -1.11 -0.88 -1.02 -0.71 -0.68,-0.80,0/18
GFDLSEYGIS,VIYADGRRASYTDAVK,GEVEGMLMV,n.d. n.d. n.d. n.d. n.d. n.d.,n.d.,0/18
GFNLDEMGIS,VIYADGSRQVYADSFK,GHFGGNKLN,n.d. n.d. n.d. n.d. n.d. n.d.,n.d.,0/18
GFDLNEYGIS,VIYADGKRTAYTDSVK,GANAGTFDQ,-0.22 -0.54 -0.16 -0.53 -0.22 -0.23,-0.32,0/18
GFELDEYGIS,VIYADGKRVSYASSVK,GKFRVDIAA,n.d. n.d. n.d. n.d. n.d. n.d.,n.d.,0/18
GFDLNEYGIS,VIYADGMRTFYADSVK,GTNAGTFDQ,-0.77 0.60 0.14 -0.40 -0.15 -0.41,-0.17,0/18
GKHLDEYGIS,VIYADGQRVAYADTVK,GIQGVNVDV,n.d. n.d. n.d. n.d. n.d. 1.93,1.93,0/18
GFDLDEYGIS,VIYADGVRTAYADSVK,GENAGTFDV,-0.13 -0.35 -0.30 -0.32 -0.51 -0.20,-0.30,1/18 (1.85)
GFDLNEYGIS,VIYADGRRTSYIDSVK,GEIAGTFDV,0.06 -0.09 -0.21 -0.49 0.17 -0.02,-0.10,0/18
GFDLNEYGIS,VIYADGRRTFYSDSVK,GENAGFFDE,n.d. n.d. n.d. n.d. n.d. n.d.,n.d.,0/18
GFDLNEYGIS,VIYADGRRTFYVDSVK,GENAGTFDM,0.06 -0.32 -0.58 -0.39 -0.37 -0.35,-0.33,0/18
GFDLNEYGIS,VIYADGMRTAYVDNVK,GNVAGTFDV,0.13 0.25 -0.26 0.08 -0.01 0.17,0.06,0/18
GFDLDEYGIS,VIYADGVREAYIDSVK,GNWSGTIMY,n.d. n.d. n.d. n.d. n.d. n.d.,n.d.,0/18
GFDLNEYGIS,VIYADGMRTFYDDSVK,GQLAGTFDT,-0.39 -0.40 -0.33 -0.38 -0.16 0.09,-0.26,0/18
GFNIDEYGIS,VIYADGMRTAYSNAVK,GNVNGGTIS,n.d. n.d. n.d. n.d. n.d. n.d.,n.d.,0/18
GFDLGEYGIS,VIYADGRRFSYKDAVK,GQVEGMLDV,n.d. n.d. n.d. n.d. n.d. n.d.,n.d.,0/18

The 4 strongest on average among those seen in every replicate, once more:

CDR-H1,CDR-H2,CDR-H3,"log10 Kd, replicates",mean log10 Kd (nM),control signals
GFDLNEYGIS,VIYADGRRTFYADSVK,GNVAGTFSS,-0.42 -1.11 -0.88 -1.02 -0.71 -0.68,-0.80,0/18
GFDLNEYGIS,VIYADGRRTAYTDSVK,GHLAGTFDL,-0.41 -0.69 -0.83 -0.69 -0.50 -0.36,-0.58,2/18 (3.13)
GFDLNEYGIS,VIYADGRRTFYADSVK,GETGGTFDV,-0.81 0.00 -1.08 -1.09 0.64 -0.11,-0.41,0/18
GFDLDEYGIS,VIYADGMRTFYADSVK,GETAGTFDV,-0.09 -0.41 -0.34 -0.52 -0.56 -0.34,-0.38,0/18

Of ten entries with the parent sequence, four were seen in most replicates (averages 0.34 to 2.37), three in one and three in none, so single entries are noisy. Empty control strains, which show no peptide, gave a signal in 1% of pairings with all heavy chain designs; the median was 2.08 and 95% of these signals were weaker than 0.84. No background was subtracted. For each scFv, signals with the empty controls are counted beside the result, with their mean in brackets. A sequence measured in both rounds can read differently, since the two assays cover different ranges. In the paper, a design with two or fewer of six values counts as a poor binder.